Source: article PMC5404377 (Bioorganic & medicinal chemistry letters, 2016)

Sequences of proteins named here, by UniProt entry; tags and fusion partners are left off. A change or cut given only in a name is not applied to a line headed by its entry.
UniProt P35372, whole entry: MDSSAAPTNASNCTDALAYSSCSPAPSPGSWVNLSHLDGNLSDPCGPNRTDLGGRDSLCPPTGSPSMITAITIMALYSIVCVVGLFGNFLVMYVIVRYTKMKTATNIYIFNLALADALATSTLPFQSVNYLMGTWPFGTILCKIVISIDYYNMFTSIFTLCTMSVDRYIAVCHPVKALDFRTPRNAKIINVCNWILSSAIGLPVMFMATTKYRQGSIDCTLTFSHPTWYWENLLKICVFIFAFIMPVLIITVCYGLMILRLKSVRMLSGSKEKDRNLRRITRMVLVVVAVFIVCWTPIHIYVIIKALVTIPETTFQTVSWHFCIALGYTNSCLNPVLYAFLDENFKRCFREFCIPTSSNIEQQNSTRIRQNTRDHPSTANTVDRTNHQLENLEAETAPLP
UniProt P33535, whole entry: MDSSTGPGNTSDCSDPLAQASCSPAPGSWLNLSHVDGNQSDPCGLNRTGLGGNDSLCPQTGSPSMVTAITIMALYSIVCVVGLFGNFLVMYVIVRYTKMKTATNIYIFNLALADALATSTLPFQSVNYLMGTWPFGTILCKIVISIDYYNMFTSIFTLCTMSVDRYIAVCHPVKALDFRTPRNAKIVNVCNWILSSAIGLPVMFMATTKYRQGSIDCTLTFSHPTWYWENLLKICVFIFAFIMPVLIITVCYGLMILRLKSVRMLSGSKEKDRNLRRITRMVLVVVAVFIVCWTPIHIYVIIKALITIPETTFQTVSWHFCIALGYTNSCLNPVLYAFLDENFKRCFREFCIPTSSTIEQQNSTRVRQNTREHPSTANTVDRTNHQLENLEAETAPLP
UniProt P41145: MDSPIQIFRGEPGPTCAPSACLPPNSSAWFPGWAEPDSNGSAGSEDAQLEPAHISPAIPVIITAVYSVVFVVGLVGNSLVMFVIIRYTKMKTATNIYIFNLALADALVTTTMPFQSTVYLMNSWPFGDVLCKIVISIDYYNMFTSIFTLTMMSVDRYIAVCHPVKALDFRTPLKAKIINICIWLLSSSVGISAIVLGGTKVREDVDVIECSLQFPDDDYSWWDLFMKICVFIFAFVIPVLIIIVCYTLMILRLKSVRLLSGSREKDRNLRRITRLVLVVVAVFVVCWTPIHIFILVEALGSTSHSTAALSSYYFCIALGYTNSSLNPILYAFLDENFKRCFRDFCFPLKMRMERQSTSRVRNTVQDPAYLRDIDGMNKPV

What was measured:
hMOR = hMOR (Homo sapiens, UniProt P35372)
MOR = MOR (Rattus norvegicus, UniProt P33535); test: [35S]GTPγS assay, agonist efficacy at MOR; format: biochemical
hKOR = hKOR (Homo sapiens, UniProt P41145); format: binding; settings: read-out: Ki (nM) ± SEM KOR

## O=C1/C(=C/c2ccccc2)C[C@@]2(O)[C@H]3Cc4ccc(O)c5c4[C@@]2(CCN3CCc2ccccc2)[C@H]1O5 [Compound 7]
hMOR
  Ki: 56 ± 3.8 nM
MOR
  EC50: 253 ± 70 nM
hKOR
  Ki: 602 ± 60 nM
